Assay results as given in paper PMC10614829 (Proceedings of the National Academy of Sciences of the …, 2023).

Tests used:
3xFLAG-tagged ERK2 = 3xFLAG-tagged ERK2 (rat, UniProt P63086); assay: cell-based or functional assay
[1] = target: dually phosphorylated ERK2 on Tyr185 and Thr183 (ERK2-pTpY), purified (rat, UniProt P63086, phosphothreonine 183, phosphotyrosine 185); assay: cell-based or functional assay

ERK2 autophosphorylation rate, real-time fluorescence-based in vitro kinase assay (ERK2 15 nM, βarr1 300 nM); fold enhancement of the initial rate over ERK2 alone (3xFLAG-tagged ERK2): 10.1 fold over control | ERK2-pTpY activity towards MBP, real-time fluorescence-based in vitro kinase assay; fold enhancement of the initial rate over no βarr control [1]: ~5 fold over control
B1: β-arrestin 1 (purified, free basal state) (natural protein, UniProt P29066 1-418, looked up)
chain: MGDKGTRVFKKASPNGKLTVYLGKRDFVDHIDLVDPVDGVVLVDPEYLKERRVYVTLTCAFRYGREDLDVLGLTFRKDLFVANVQSFPPAPEDKKPLTRLQERLIKKLGEHAYPFTFEIPPNLPCSVTLQPGPEDTGKACGVDYEVKAFCAENLEEKIHKRNSVRLVIRKVQYAPERPGPQPTAETTRQFLMSDKPLHLEASLDKEIYYHGEPISVNVHVTNNTNKTVKKIKISVRQYADICLFNTAQYKCPVAMEEADDTVAPSSTFCKVYTLTPFLANNREKRGLALDGKLKHEDTNLASSTLLREGANREILGIIVSYKVKVKLVVSRGGLLGDLASSDVAVELPFTLMHPKPKEEPPHREVPESETPVDTNLIELDTNDDDIVFEDFARQRLKGMKDDKDEEDDGTGSPHLNNR
